Assay results reported in US20240248078A1, “Compositions For and Methods of Evaluating Gap Junction Formation and Function” (Duke University, priority 2021, published 2024).

Target: Cx36-FP (human)
Test: heterotypic FETCH flow cytometry, n=5

Cx26-FP
z (test statistic of the FETCH score against the negative distribution): 9.03
